Binding of CDR-mutated scFvs to a peptide of the spike HR2 region

All variants were tested on one target, the spike HR2 peptide PDVDLGDISGINAS (SARS-CoV-2).

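The starting antibody came from a phage panning campaign against this peptide. Library AAYL49 holds single substitutions and randomly drawn double and triple substitutions in the CDRs. The assay is AlphaSeq: two haploid yeast populations carry antibody and antigen on their surface. Mating (16 h, 30 °C) was followed by selection of diploids and sequencing of their barcodes. Scores were corrected for input abundance and mapped to Kd with protein pairs of known affinity run in the same pool. Mating was done three times.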

The variants keep the light chain, the linker and the frameworks of Ab-14 (scFv order VH, a 15-residue (Gly4Ser)3 linker, VL).
VH: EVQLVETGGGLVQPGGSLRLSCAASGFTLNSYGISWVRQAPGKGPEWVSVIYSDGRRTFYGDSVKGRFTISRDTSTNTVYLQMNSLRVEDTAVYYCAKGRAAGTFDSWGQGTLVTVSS
VL: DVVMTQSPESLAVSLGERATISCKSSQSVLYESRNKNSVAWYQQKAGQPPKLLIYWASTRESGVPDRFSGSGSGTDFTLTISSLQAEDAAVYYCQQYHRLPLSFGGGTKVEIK

The parent's heavy chain CDRs are GFTLNSYGIS, VIYSDGRRTFYGDSVK, GRAAGTFDS; each variant's own CDRs replace them letter for letter. This list gathers variants with a substitution at D54 (VH, numbered from residue 1). Numbers give log10(Kd / nM), so 0 is 1 nM and 3 is 1 µM. Smaller is tighter. The mean shown is taken over the replicates in which the pair was detected. An entry "ND" has no value in the source: the pair was not observed among the diploids in that replicate. This suggests poor binding but is not conclusive. Order: sorted from the lowest average up, undetected variants last.

Variant GTTLNSPGIS / VIYSMGRRTFYGDSVK / GRAAGTFDS gave ND, ND, 2.20. Variant GFTLNSYGIS / VIYSKGRRTFYGDSVE / GRAAGTFDS showed 2.58, ND, ND. Variant GFTLNSYGIS / VIYSQGRRTIYGDSVK / GRFAGTFDS gave 2.90, ND, ND. Variant GFTLNSDGIS / VIYSVGRRTFYGHSVK / GRAAGTFDS showed ND, ND, 3.15. With GFTLNSYGIS / VIYSYYGRTFYGDSVK / GRAAGTFDS the result was ND, ND, 3.16. With GFTLNSYGIS / VIYSSGRRTFYGDSVK / GRQAGTFDS the result was ND, 3.46, ND. Variant GFTLNSYGIS / QIYSTGRRMFYGDSVK / GRAAGTFDS showed 3.78, ND, ND. With GFTLNSYGAS / VIYSEGRRTFYGDSVK / GRHAGTFDS the result was ND, 4.04, ND. With GFTLNSYGIS / VPYSIGRRTFYEDSVK / GRAAGTFDS the result was 4.10, ND, ND.

Variant GFTLNSYGIS / VIYGEGRRTFYGDSMK / GRAAGTFDS gave ND, 4.22, ND. Variant GATLNSYGIS / VIYSHGRRTFYGDSVK / GRAAGTFDS gave 5.25, 3.46, ND (mean 4.35). With GFPLNSYGIS / VIYSRGRRTFYGDSVK / GRAEGTFDS the result was 3.33, ND, 5.94 (mean 4.63). For GFELDSYGIS / VIYSKGRRTFYGDSVK / GRAAGTFDS, the assay gave ND, 3.66, 5.75 (mean 4.71). For GFTLNPYGIS / VIYSNGRRTFYGDSVL / GRAAGTFDS, the assay gave 4.35, 5.40, ND (mean 4.87). Variant GFTLNSYGIS / VIYSIGRRLFYGDSVK / GRAWGTFDS gave ND, 5.08, ND. Variant GITLNSYGIS / VIYSNGRRTFYGDSVK / GRAAGTYDS showed ND, ND, 5.49. With GFDQNSYGIS / VIYSRGRRTFYGDSVK / GRAAGTFDS the result was ND, ND, 5.51. For GFTLASYGIS / VIYSKGRRTAYGDSVK / GRAAGTFDS, the assay gave ND, ND, 5.72.

For GFTLNSYGIS / VIYSVGRRTFYGDSVK / GRYAGTCDS, the assay gave ND, ND, ND. With GFTLNSYGIS / VIYSKNRRTFYGDSVK / GRAAGCFDS the result was ND, ND, ND. With GFTLNSYGIK / VIYSLGRRTFYGDSVK / GRAAGTFDS the result was ND, ND, ND. Variant GFTLNSYGIS / VIYSGGRRTFYKDSVK / GRWAGTFDS gave ND, ND, ND. With GFTLNSYGIS / VIYSPGRRTFYGDSLK / GRPAGTFDS the result was ND, ND, ND. Variant GFTLNSYGIS / VFQSGGRRTFYGDSVK / GRAAGTFDS gave ND, ND, ND. For GFTLMSYGIS / VIYSGGRRTMYGDSVK / GRAAGTFDS, the assay gave ND, ND, ND. Variant YFTLNSYGIS / VIYAQGRRTFYGDSVK / GRAAGTFDS gave ND, ND, ND. Variant SFTLNSYGIS / VIYSHGRRTFYGDSVK / GRAAGTFDS showed ND, ND, ND.

Variant GFTLNSYGIS / VIYSSLARTFYGDSVK / GRAAGTFDS gave ND, ND, ND. For GFTLNSYGIS / VIYSWGRRYFYGDSVK / GRAAGTFDS, the assay gave ND, ND, ND. With GFTLNSYGIS / VIYSRRRRTFYGDSVK / GRAAGTPDS the result was ND, ND, ND. For GFTLNSYGIM / VIYSMGRRTFYGDSVK / GRAAGTFRS, the assay gave ND, ND, ND. Variant GFTLNVYGIS / VIYSRGRRTYYGDSVK / GRAAGTFDS gave ND, ND, ND. With GFTLNSYGIS / VIYSLGRRTFYGDSFK / GRAAGPFDS the result was ND, ND, ND. For GFTLNSYGIS / VIYSGGRRTFYGDSVK / GRAADTFDS, the assay gave ND, ND, ND. Variant GFTLNSDGIS / VIHSWGRRTFYGDSVK / GRAAGTFDS showed ND, ND, ND. With GFTLISYGIS / EIYSPGRRTFYGDSVK / GRAAGTFDS the result was ND, ND, ND.

For GHTLNSYGIS / VILSKGRRTFYGDSVK / GRAAGTFDS, the assay gave ND, ND, ND. Variant GFTLNSYGIS / VIYSWGYRTFYGDSVK / GNAAGTFDS showed ND, ND, ND. With SFTLWSYGIS / VIYSAGRRTFYGDSVK / GRAAGTFDS the result was ND, ND, ND. Variant GFTLNSYGIS / VIYSIGRRTFYGDGVK / GRAAYTFDS showed ND, ND, ND. With GFTLNDYTIS / VIYSLGRRTFYGDSVK / GRAAGTFDS the result was ND, ND, ND. Variant GFTLNSYGIS / VIYSCGRNTFYGDSVK / GRHAGTFDS showed ND, ND, ND. Variant GFTLNSYGIS / VIYSHGRRTGYGDSVK / LRAAGTFDS gave ND, ND, ND. For GFTLNSYGIS / VIYSHGRRTFYGDSVK / GRAAGTSDS, the assay gave ND, ND, ND. With WFTLNSYGIS / VIYSGGRRTFYGDSVK / GRAAGTFAS the result was ND, ND, ND.

Three control strains display no target. For library AAYL49, 15% of the pairings with them gave a signal, with a median of 4.06 and one signal in twenty below 2.83, so weak values seen in few replicates may be background. In this assay the parent's reference entry averaged 0.65; its copy inside this library read 4.11 (one replicate of three).

Data: MIT Lincoln Laboratory AlphaSeq set, Engelhart et al. 2022, doi:10.1038/s41597-022-01779-4, as distributed in FLAb.